Assay results: patent US20150087686A1, “CRYSTALLINE FORMS OF SAXAGLIPTIN” (priority 2012, published 2015)

Assay: Chemical stability at 60° C.-37% RH (amidine impurities by HPLC-MS)
Experimental: Crystalline and chemical stability at 60° C.-37% RH: saxagliptin crystalline form I and the known saxagliptin crystalline forms H-1, H2-1 were stored at 60° C. with 37% relative humidity (RH). The samples were analyzed by XRPD and HPLC-MS to check crystalline transformation and chemical degradation.
Crystalline and chemical stability at 60° C.—37% RH: Saxagliptin crystalline forms H-1, H2-1 and A were stored at 60° C. with 37% RH. The samples were analyzed by XRPD and HPLC-MS to check crystalline transformation and chemical degradation.

salt of saxagliptin with glycolic acid (1:1) hydrate [Form A]
Degradation rate / stability compared with free base H-1 and hydrochloride H2-1: better stability
Δ variation amidine Impurities A and B % (HPLC-MS), impurity (A) (16 h (Table 7)): 0.1% (A)
Δ variation amidine Impurities A and B % (HPLC-MS), impurity (A) (168 h (Table 7)): 0.7%
Δ variation amidine Impurities A and B % (HPLC-MS), impurity (B) (168 h (Table 7)): 0.2%
